US11505525B2, “Branched discrete PEG constructs” (Quanta BioDesign, Ltd., priority 2011, dated 2022)
“And” between values parts separate entries of the source, which are not always exact repeats. Equal entries are not always repeated.

Experiment: PK data in normal female athymic mice
Source text: In a different study, PK data was taken on normal athymic mice injected with: mCC49 Fab′-dPEG12-Tris(dPEG12-Tris(m-dPEG11)3)3, mCC49 Fab′-dPEG12-Tris(dPEG24-acid)3, mCC49 Fab′-dPEG12-Tris(m-dPEG24)3, and mCC49 Fab′-dPEG12-Tris(dPEG12-acid)3.
PK data was taken with additional normal female athymic mice as follows: […]

mCC49 Fab′-NEM [Fab-NEM, reference compound]
PK data (percent injected dose), individual mice 1-3 (0 hrs after injection): 29.58 and 30.89 and 41.48 | PK data (percent injected dose), individual mice 1-3 (0.5 hrs after injection): 13.61 and 0.95 and 17.79 | PK data (percent injected dose), individual mice 1-3 (1 hrs after injection): 5.83 and 5.36 and 8.27 | PK data (percent injected dose), individual mice 1-3 (2 hrs after injection): 5.01 and 4.65 and 5.18 | PK data (percent injected dose), individual mice 1-3 (3 hrs after injection): 4.39 and 2.72 and 3.21 | PK data (percent injected dose), individual mice 1-3 (6 hrs after injection): 2.68 and 1.93 and 9.25 | PK data (percent injected dose), individual mice 1-3 (22 hrs after injection): 0.23 and 0.18 and 0.2 | PK data (percent injected dose), individual mice 1-3 (28 hrs after injection): 0.48 and 0.29 and 0.14 | PK data (percent injected dose), individual mice 1-3 (48 hrs after injection): 0.1 and 0.09 and 0.13
